Measurements as given in patent US20080027087A1 (AMPLA Pharmaceuticals, Inc., priority 2006, published 2008).

Assay: acute administration: wet mash intake, food intake and body weight in lean male C57BL/6J mice
Type: in vivo
Conditions: dosed alone per the protocol; not as much of a reduction as the combinations with bupropion
Description: The goal of this study was to investigate the effects of various ratios of bupropion:(R)-norfluoxetine on body weight and food and water intake in male C57BL/6J mice habituated to the daily presentation of a palatable wet mash diet. Rimonabant was used as a reference compound. Animals were maintained on normal-phase lighting. Test compounds were administered orally and measurements were made over the following 24 hours. All experiments included appropriate vehicle-treated control groups.
Sixty-two male C57BL/6J mice (weight range 20-25 g) were ordered from Harlan UK, Bicester, UK. The mice were individually housed in polypropylene cages at a temperature of 21±4° C. and 55%±20% humidity. […]
Typically an acute study was run each week with each study containing 60 animals. […] Animals were weighed and 2 h wet mash intake was calculated (to the nearest 0.1 g). […]
Drug administration occurred 60 minutes before the presentation of ‘wet mash’ which was at approximately 09:30 am. […] The mash was replaced with a fresh quantity of wet mash at the 4 hour time point. […] Wet mash was replaced with a known quantity of standard pellets at the 6 hour time point. […] Food and water intakes of the different groups of animals were measured concurrently. The animals were monitored at each reading and any overt drug-induced behavioural effects were recorded. […]

Compound: NCC[C@@H](Oc1ccc(C(F)(F)F)cc1)c1ccccc1.O=C(O)C(O)C(O)C(=O)O [(R)-Norfluoxetine (D)-tartrate]
- weight gain: reduction
- wet mash intake: reduction
